The source made the active and inactive calls. The rule behind the calls is not given here.
How the values were obtained:
[1] = target: Sodium-dependent serotonin transporter (Homo sapiens) (UniProt P31645); test: Inhibition of SERT (unknown origin) expressed in HEK293 cells assessed as inhibition of MPP+ transport incubated for 5 mins by tandem mass spectrometry; format: cell-based
[2] = target: Sodium-dependent dopamine transporter (Homo sapiens) (UniProt Q01959); test: Inhibition of DAT (unknown origin) expressed in HEK293 cells assessed as inhibition of MPP+ transport incubated for 5 mins by tandem mass spectrometry; format: cell-based

By UniProt entry, the sequences of proteins in these tests, tags left out.
UniProt P31645, whole entry, looked up: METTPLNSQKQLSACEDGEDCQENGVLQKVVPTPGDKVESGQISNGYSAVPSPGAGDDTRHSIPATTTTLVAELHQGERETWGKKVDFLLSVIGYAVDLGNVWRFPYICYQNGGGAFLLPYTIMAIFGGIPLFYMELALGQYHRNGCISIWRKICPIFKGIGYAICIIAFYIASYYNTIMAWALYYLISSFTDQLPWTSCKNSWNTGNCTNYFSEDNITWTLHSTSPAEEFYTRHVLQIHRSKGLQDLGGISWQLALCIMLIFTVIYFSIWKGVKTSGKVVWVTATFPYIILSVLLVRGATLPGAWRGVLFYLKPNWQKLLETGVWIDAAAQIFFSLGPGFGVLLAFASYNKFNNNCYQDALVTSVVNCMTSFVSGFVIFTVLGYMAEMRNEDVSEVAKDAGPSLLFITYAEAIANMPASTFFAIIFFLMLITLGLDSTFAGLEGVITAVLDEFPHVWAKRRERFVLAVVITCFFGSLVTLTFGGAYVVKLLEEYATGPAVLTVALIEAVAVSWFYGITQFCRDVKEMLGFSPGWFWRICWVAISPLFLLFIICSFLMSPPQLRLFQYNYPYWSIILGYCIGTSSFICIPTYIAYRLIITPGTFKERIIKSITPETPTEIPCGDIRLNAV
UniProt Q01959, whole entry: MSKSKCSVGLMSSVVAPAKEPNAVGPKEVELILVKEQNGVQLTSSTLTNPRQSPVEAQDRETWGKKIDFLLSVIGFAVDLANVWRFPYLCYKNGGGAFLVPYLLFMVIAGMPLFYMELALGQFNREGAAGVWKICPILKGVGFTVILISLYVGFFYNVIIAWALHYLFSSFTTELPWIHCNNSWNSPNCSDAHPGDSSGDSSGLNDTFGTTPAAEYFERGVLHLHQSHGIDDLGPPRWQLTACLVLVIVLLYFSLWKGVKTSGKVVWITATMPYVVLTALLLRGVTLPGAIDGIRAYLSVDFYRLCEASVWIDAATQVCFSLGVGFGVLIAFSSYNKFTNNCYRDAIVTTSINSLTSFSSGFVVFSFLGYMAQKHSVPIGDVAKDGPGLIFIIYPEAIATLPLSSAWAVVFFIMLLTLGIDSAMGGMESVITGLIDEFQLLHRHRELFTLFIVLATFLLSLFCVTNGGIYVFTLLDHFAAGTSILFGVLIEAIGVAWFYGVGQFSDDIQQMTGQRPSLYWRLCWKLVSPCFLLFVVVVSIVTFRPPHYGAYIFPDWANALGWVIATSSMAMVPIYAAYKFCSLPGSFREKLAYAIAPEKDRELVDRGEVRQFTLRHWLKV

Row | Structure (SMILES) | inhibition [1] | inhibition [2]
1 | Cc1ccccc1NC(=O)C(C)n1nc(C(=O)Nc2ccccc2)c2ccccc21 (configuration not stated) | inactive | inactive
2 | CC(C(=O)Nc1ccc(F)cc1)n1nc(C(=O)Nc2ccccc2)c2ccccc21 (configuration not stated) | inactive | inactive
3 | CC(C(=O)Nc1ccccc1)n1nc(C(=O)Nc2ccc(Cl)cc2)c2ccccc21 (configuration not stated) | inactive | inactive
4 | CC(C(=O)Nc1ccccc1)n1nc(C(=O)Nc2ccccc2)c2ccccc21 (configuration not stated) | inactive | inactive
5 | CS(=O)(=O)c1ccc(-c2nn(CC(=O)Nc3ccc(Cl)c(Cl)c3)c3ccccc23)cc1 | inactive | inactive
6 | COc1ccc(NC(=O)C(C)n2nc(C(=O)Nc3ccccc3)c3ccccc32)cc1 (configuration not stated) | inactive | inactive

From ChEMBL document CHEMBL6109064, “Functional and structural polypharmacology of indazole-based privileged ligands to tackle the undruggability of membrane transporters” (Eur J Med Chem, 2025)
